{"source": "paper PMC3735542", "about": "“Light Driven CO2 Fixation by Using Cyanobacterial Photosystem I and NADPH-Dependent Formate Dehydrogenase” (PLoS ONE, 2013)", "key": {"[1]": {"system": "NC(=O)c1ccc[n+]([C@@H]2O[C@H](COP(=O)(O)OP(=O)(O)OC[C@H]3O[C@@H](n4cnc5c(N)ncnc54)[C@H](OP(=O)(O)O)[C@@H]3O)[C@@H](O)[C@H]2O)c1", "assay": "purified protein", "conditions": "500 mM formate, PBS, 0.05% Triton X-100; Table 1 prints WT as DYH, methods print Gln197"}, "[2]": {"system": "O=CO", "assay": "purified protein", "conditions": "2 mM NADP+, PBS, 0.05% Triton X-100"}}, "data": [{"substance": "Candida FDH (CbFDH) ([Candida] boidinii; D195Q/Q197N/Y196R)", "values": [{"measurement": "Km", "setting": "[1]", "value": "0.18 ± 0.01", "unit": "mM"}]}, {"substance": "Pseudomonas FDH (PsFDH) (Pseudomonas sp. 101; D222Q/H224N)", "values": [{"measurement": "Km", "setting": "[2]", "value": "63 ± 3", "unit": "mM"}]}]}
